Experimental findings from patent publication US10934303B2, “Aryl ethene derivative and pharmaceutical composition containing same as active ingredient” (priority 2016, dated 2021) are described below.

Sequences of proteins named here, by UniProt entry; tags and fusion partners are left off. A change or cut given only in a name is not applied to a line headed by its entry. Residues count along the entry.
UniProt P11474, 193-421: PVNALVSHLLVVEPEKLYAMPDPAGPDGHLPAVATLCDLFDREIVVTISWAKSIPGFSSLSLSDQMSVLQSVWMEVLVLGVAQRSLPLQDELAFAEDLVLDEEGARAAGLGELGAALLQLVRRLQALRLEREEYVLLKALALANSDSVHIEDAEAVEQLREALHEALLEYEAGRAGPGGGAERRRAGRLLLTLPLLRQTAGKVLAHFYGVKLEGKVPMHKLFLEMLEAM
UniProt O95718: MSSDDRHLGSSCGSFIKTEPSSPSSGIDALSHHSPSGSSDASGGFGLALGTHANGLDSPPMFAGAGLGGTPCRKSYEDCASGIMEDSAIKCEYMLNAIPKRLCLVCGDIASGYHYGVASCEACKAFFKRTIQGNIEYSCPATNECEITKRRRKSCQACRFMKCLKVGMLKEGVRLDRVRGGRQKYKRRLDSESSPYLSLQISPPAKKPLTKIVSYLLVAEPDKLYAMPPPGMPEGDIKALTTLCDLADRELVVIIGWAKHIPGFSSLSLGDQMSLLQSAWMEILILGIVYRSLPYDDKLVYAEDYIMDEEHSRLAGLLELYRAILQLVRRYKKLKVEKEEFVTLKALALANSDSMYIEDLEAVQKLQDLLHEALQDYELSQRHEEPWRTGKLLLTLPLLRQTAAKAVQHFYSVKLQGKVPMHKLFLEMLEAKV
UniProt P03372, whole entry, looked up: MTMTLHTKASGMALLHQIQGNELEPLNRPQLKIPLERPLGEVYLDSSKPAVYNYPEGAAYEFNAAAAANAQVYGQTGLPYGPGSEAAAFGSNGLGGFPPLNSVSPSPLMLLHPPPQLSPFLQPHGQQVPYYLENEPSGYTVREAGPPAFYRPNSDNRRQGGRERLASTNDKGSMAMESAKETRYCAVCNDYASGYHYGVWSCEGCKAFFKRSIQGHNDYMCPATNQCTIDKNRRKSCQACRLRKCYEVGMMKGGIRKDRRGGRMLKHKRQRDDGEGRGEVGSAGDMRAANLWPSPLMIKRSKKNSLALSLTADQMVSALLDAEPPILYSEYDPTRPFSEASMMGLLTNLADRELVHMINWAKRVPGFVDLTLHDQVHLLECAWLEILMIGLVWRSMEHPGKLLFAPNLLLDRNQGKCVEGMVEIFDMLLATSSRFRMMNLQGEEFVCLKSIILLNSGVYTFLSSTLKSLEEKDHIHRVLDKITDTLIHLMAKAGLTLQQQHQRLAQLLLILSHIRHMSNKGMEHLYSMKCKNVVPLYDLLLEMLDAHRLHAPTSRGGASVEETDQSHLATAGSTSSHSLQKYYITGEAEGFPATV

For one assay, the target named is GST-bound ERR alpha LBD (Homo sapiens (Human), UniProt P11474). The experiment in a line: biochemical. The class given is binding.
A further assay has as its target ERRβ (Homo sapiens, UniProt O95718). The settings on record: TR-FRET, PGC1a coactivator; read-out: Binding Assay, IC50 ERRβ.
For assay [1], the target named is GST-bound ER alpha ligand-binding domain (LBD) (Homo sapiens (Human), UniProt P03372). The assay can be described thus: biochemical.

As a reminder, the IC50 is the concentration at which inhibition is half-maximal. For `CC(C)N1CCN(c2ccc(/C(=C(/CCCO)c3ccccc3)c3ccc(NS(C)(=O)=O)cc3)cc2)CC1` [Compound 27a, (E)-N-(4-(5-hydroxy-1-(4-(4-isopropylpiperazin-1-yl)phenyl)-2-phenylpent-1-en-1-yl)phenyl)methanesulfonamide], the IC50 on GST-bound ERR alpha LBD turned out to be 4.32 µM.

With `CN1CCC[C@H]1COc1ccc(/C(=C(/CCCO)c2ccccc2)c2ccc(Br)cc2)cc1` [Compound 13b], the IC50 was 3.93 µM at ERRβ and > 10 µM in assay [1].
